From PMC12064818, “A general assay platform to study protein pharmacology using ligand-dependent structural dynamics” (Nature Communications, 2025)

Amino acid sequences for entries named in this document (tags omitted). Residues count along the entry.
UniProt P00519, 233-500 limits assumed: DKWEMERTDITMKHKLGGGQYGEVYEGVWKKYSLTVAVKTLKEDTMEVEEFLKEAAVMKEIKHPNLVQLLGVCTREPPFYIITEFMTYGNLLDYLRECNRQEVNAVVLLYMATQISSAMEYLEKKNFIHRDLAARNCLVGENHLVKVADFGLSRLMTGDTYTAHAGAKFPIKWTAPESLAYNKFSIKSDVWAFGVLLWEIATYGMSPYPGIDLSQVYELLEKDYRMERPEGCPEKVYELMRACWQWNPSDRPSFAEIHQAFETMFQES

Key:
PKA = details: annotation yes/no for kinase library compound; source not given; cited from earlier work
[1] = biological target: T1, ABL1-N-HiBiT kinase domain (Homo sapiens, UniProt P00519); experiment: SDR assay, ABL1-N-HiBiT; details: for SDR Ave Max Response / EC50: ABL1-N-HiBiT qHTS; for SDR Ave Max Response: average maximal SDR response; for EC50: read-out: SDR Ave SDR50, average, unit inferred
[2] = biological target: T1, ABL1-N-HiBiT kinase domain; details: for ABL1 KGP pIC50: ABL1, Kinase-Glo Plus (KGP), heatmap data, 128 kinase inhibitors
PKA-N-HiBiT = PKA-N-HiBiT (Homo sapiens, UniProt P17612); experiment: SDR assay, PKA-N-HiBiT; details: without ATP

## Oc1ccc(-c2ccc(-c3cc(Nc4cccc(CNC5CC5)c4)[nH]n3)cc2)c(O)c1
PKA
  Annotated PKA activity: no
[1]
  SDR Ave Max Response: 36.2%

## CCCCNc1ncc2c(-c3ccc(S(=O)(=O)N4CCOCC4)cc3)nn(C3CCC(O)CC3)c2n1 (stereo not shown)
[2]
  ABL1 KGP pIC50: 5.41
PKA
  Annotated PKA activity: no
[1]
  SDR Ave Max Response: 76.3%
  EC50: 2070 nM

## Nc1ncnc2c1c(-c1ccc(Oc3ccccc3)cc1)cn2C1CCCC1
PKA
  Annotated PKA activity: no

## CNS(=O)(=O)c1ccc2c(c1)/C(=C/c1[nH]c3c(c1CCCN1CCN(C)CC1)CCCC3)C(=O)N2
PKA
  Annotated PKA activity: no
PKA-N-HiBiT
  PKA SDR Assay Mean (pSDR50): 4.36
[1]
  SDR Ave Max Response: 131%

## Cc1cc(-c2cc(O)ccc2Cl)cc2nnc(Nc3ccc(OCCN4CCCC4)cc3)nc12
[1]
  SDR Ave Max Response: 81.4%

## Cc1cc(Nc2ncc3cc(-c4c(Cl)cccc4Cl)c(=O)n(C)c3n2)ccc1F [PD 180970]
[2]
  IC50: 36.3 nM
  ABL1 KGP pIC50: 7.47
[1]; ABL1, SDR, heatmap data, 128 kinase inhibitors
  ABL1 SDR pSDR50: 8.19
[1]
  SDR Ave Max Response: 72.3%
  EC50: 6.44 nM
